The text below walks through data of paper PMC12648443, “Modifications of NU-9, a potent protein aggregation inhibitor. Properties and activity in a cellular model of amyotrophic lateral sclerosis” (Bioorganic chemistry, 2025).

Amino acid sequences for entries named in this document (tags omitted). A change or cut given only in a name is not applied to a line headed by its entry.
UniProt Q9UNQ0: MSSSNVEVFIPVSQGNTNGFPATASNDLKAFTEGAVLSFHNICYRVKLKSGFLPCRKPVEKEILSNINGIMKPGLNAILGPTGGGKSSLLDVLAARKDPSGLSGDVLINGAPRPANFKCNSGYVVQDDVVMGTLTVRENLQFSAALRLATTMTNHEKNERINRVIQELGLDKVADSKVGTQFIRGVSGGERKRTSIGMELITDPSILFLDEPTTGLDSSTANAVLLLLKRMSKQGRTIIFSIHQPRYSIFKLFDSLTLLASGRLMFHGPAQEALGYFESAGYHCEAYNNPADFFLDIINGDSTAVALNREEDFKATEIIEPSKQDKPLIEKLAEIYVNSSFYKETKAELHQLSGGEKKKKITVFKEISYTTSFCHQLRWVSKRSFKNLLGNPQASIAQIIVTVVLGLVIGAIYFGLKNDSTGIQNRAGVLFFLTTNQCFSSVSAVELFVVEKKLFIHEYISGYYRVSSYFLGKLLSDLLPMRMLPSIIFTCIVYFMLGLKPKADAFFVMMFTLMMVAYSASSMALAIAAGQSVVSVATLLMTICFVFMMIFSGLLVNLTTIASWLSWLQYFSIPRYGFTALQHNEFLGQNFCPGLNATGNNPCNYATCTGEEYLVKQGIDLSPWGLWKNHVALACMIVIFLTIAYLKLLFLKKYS

This data set has as its target T1, BCRP (Homo sapiens, UniProt Q9UNQ0).
T1 construct: host or cells: MDCKII-BCRP (canine MDR1 knockout, transfected with BCRP)
Description: MDCKII-BCRP bidirectional permeability / efflux assay. The data set is classed as in vitro ADME. The settings on record: dog, absence of Ko143.

What is called Papp A→B is the apparent permeability from the apical to the basolateral side of a cell layer. High values mean fast passage, low ones slow passage. For orientation: Papp B→A means the apparent permeability from the basolateral to the apical side of a cell layer. By efflux ratio is commonly meant a quotient of directional permeabilities that is used to spot active efflux. For the compound `O=C1CN(/N=C/c2ccc(-c3ccc([N+](=O)[O-])cc3)o2)C(O)=N1` [Dan., dantrolene, reference compound], the Papp A→B at 120 min came out at 0.52 ± 0.1 ×10⁻⁶ cm/s, the Papp B→A at 120 min was found to be 29.7 ± 3.21 ×10⁻⁶ cm/s and the efflux ratio at 120 min was determined as 56.9.
